Marks after values point to notes of the source that are not given here.
System: A549
Experiment: DNA damage, comet assay, A549
Assay type: cell-based, human

COc1cccc2c1C(=O)c1c(O)c3c(c(O)c1C2=O)C[C@@](O)(C(=O)CO)C[C@@H]3O[C@H]1C[C@H](N)[C@H](O)[C@H](C)O1 [Doxorubicin, reference compound]
DNA damaged cells % (mean ± SEM): 21.52 ± 1.04^a %

Reference: article PMC10579241, “Impact of trifluoromethyl and sulfonyl groups on the biological activity of novel aryl-urea derivatives: synthesis, in-vitro, in-silico and SAR studies” (Scientific Reports, 2023)
